According to article PMC3606911 (2012):
“Also recorded” adds a separate entry of the source.

Sequences of proteins named here, by UniProt entry; tags and fusion partners are left off.
UniProt P97612, whole entry: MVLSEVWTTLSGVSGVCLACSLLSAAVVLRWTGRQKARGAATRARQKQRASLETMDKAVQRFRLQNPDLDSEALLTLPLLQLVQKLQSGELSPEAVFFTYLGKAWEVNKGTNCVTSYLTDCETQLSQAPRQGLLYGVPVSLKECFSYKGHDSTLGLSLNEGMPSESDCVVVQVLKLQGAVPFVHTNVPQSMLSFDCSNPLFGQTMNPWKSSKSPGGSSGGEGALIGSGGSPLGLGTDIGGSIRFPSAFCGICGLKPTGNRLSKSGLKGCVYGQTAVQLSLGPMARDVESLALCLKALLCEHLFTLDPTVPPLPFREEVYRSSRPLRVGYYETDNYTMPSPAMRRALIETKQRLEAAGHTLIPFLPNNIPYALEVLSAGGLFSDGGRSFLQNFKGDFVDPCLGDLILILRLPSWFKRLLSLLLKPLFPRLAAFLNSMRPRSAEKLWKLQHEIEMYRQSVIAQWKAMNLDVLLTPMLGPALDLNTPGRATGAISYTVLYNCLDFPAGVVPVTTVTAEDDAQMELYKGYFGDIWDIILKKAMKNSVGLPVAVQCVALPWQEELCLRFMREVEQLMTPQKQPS

Molecular target: FAAH (Rattus norvegicus, UniProt P97612)
Experiment: FAAH assay: hydrolysis of [3H]AEA by rat brain homogenates
Details: for Vmax app of AEA hydrolysis: AEA 0.3–3 μM

- time-dependency of FAAH inhibition (preincubation time): did not show time-dependent inhibition
- reversibility of FAAH inhibition (dilution experiments) (12 μM preincubated 60 min at 37 °C, diluted 20-fold): fully reversible
- FAAH/COX-1 potency ratio, ratio for 1 set to unity (higher number = increased FAAH inhibitory potency relative to COX-1 potency): ~ 60
- Vmax app of AEA hydrolysis (in the presence of 3 of 9): 2.42 nmol.mg protein^−1.min^−1
- Vmax app of AEA hydrolysis (in the presence of 5 of 9): 2.40 nmol.mg protein^−1.min^−1
- Max inhibition % (solvent EtOH): 100%
Compound: Cc1cccnc1NC(=O)CNC(=O)C(C)c1ccc(CC(C)C)cc1 (stereo not shown) [Compound 9, 2-(4-Isobutylphenyl)-N-(2-(3-methylpyridin-2-ylamino)-2-oxoethyl)propanamide]
- mode of inhibition of FAAH (rat brain AEA hydrolysis): competitive mode of inhibition; also recorded: competitive inhibitor
